Reference: ChEMBL document CHEMBL5620426, “Discovery of 3-(1H-benzo[d]imidazole-2-yl)-1H-pyrazol-4 -amine derivatives as novel and potent syk inhibitors for the treatment of hematological malignancies” (Eur J Med Chem, 2023)

Biological target: Tyrosine-protein kinase SYK (Homo sapiens, UniProt P43405)
Test: Inhibition of Syk (unknown origin) preincubated for 20 mins followed by 33P-gamma-ATP measured after 120 mins by HotSpot assay

## c1cn2cc(-c3ccc4cn[nH]c4c3)nc(Nc3ccc(N4CCOCC4)cc3)c2n1 [ENTOSPLETINIB]
  pIC50: 7.99

pIC50: −log10 of the molar value.
